In the experiment the target is T1, MBP-fused USP37 recombinant protein (human, UniProt Q86T82 1-979).
T1 construct: Recombinant fusion protein from pMAL-c2X; also called MBP-USP37; recombinant USP37
T1 sequence: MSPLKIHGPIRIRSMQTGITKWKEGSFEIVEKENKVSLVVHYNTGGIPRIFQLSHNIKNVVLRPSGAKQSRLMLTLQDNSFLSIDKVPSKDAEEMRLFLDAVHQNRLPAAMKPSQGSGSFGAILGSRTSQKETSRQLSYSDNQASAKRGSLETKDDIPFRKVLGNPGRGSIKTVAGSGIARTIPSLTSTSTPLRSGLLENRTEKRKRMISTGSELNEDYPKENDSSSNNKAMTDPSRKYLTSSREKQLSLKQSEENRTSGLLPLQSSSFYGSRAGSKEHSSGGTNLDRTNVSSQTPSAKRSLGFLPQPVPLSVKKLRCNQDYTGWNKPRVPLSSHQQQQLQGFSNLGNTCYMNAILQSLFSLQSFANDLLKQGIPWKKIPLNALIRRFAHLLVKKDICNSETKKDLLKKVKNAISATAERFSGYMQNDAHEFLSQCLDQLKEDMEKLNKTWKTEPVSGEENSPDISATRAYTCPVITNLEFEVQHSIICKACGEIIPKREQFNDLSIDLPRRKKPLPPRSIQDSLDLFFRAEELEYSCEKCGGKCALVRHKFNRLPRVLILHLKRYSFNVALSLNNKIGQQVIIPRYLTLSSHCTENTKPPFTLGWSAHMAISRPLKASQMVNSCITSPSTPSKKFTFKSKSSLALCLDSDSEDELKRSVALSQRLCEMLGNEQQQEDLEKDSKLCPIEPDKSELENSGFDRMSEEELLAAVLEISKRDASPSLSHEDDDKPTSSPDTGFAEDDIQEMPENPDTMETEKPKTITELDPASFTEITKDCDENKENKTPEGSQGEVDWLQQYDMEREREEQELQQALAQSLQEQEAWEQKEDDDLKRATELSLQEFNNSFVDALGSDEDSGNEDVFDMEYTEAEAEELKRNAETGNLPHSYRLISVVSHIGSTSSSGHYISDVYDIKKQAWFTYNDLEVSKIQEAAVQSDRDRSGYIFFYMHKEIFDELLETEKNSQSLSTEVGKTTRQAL
Put plainly: in vitro GST pull-down, Western blot. The protocol: GST pull-down assay was performed as described. Two μg of recombinant GST or GST-PLZF/RARA was incubated with 2 μg of MBP-USP37 and immobilized Glutathione beads (Thermo Scientific) in binding buffer (10 mM HEPES pH 7.5, 0.5 mM DTT, 0.5 mM EDTA, 0.1% NP-40, and 50 mM NaCl) for 4 hr at 4° C. After washing three times, the samples were then subjected to Western analysis. For in vitro deubiquitination assay, poly-ubiquitinated PLZF/RARA proteins immunoprecipitated from HEK-293T cells expressing Flag-tagged PLZF/RARA and Myc-tagged Ub were incubated with recombinant USP37 protein in 100 μl of deubiquitination buffer (50 mM Tri-HCl pH 8.0, 5 mM MgCl₂, and 1 mM DTT) for 2 hr at 37 C. The deubiquitination reaction was stopped by adding SDS sample buffer and bound proteins were extracted from beads for Western analysis.
Given that USP37 regulates PLZF/RARA protein steady-state level, we further assessed whether USP37-regulated PLZF/RARA protein level is through a protein interaction between USP37 and PLZF/RARA. […] We further substantiated the complex formation of PLZF/RARA with endogenous USP37, using U937 cells conditionally expressing Flag-tagged PLZF/RARA by adding doxycycline. Endogenous USP37 could form complexes with PLZF/RARA in cells by immunoprecipitation with either anti-USP37 or anti-Flag antibody (FIG. 3b). […]
(In general: A western blot detects proteins with antibodies after separation by electrophoresis.)

B1: recombinant GST (other, UniProt P08515 1-218, looked up)
chain: MSPILGYWKIKGLVQPTRLLLEYLEEKYEEHLYERDEGDKWRNKKFELGLEFPNLPYYIDGDVKLTQSMAIIRYIADKHNMLGGCPKERAEISMLEGAVLDIRYGVSRIAYSKDFETLKVDFLSKLPEMLKMFEDRLCHKTYLNGDHVTHPDFMLYDALDVVLYMDPMCLDAFPKLVCFKKRIEAIPQIDKYLKSSKYIAWPLQGWQATFGGGDHPPK
notes: Negative control in the GST pull-down
In the case of B1, the binding result was “no binding (tested: 2 µg of each protein)”.

(Values after US20150148403A1 (ACADEMIA SINICA, published 2015).)
